# Patent US9796704B2, “Substituted quinazolines as receptor-type kinase inhibitors” (Symphony Evolution, Inc., priority 2002, dated 2017)
# By UniProt entry, the sequences of proteins in these tests, tags left out. Residues count along the entry.
# UniProt P29317, 598-890: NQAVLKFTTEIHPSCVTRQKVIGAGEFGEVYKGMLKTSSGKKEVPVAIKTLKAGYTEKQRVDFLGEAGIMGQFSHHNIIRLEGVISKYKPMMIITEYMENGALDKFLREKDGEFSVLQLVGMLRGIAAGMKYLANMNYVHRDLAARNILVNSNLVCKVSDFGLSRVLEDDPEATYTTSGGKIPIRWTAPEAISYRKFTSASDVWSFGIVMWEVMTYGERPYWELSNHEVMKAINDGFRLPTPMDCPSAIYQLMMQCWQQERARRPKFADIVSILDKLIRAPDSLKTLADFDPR
# UniProt P35968, 807-1356: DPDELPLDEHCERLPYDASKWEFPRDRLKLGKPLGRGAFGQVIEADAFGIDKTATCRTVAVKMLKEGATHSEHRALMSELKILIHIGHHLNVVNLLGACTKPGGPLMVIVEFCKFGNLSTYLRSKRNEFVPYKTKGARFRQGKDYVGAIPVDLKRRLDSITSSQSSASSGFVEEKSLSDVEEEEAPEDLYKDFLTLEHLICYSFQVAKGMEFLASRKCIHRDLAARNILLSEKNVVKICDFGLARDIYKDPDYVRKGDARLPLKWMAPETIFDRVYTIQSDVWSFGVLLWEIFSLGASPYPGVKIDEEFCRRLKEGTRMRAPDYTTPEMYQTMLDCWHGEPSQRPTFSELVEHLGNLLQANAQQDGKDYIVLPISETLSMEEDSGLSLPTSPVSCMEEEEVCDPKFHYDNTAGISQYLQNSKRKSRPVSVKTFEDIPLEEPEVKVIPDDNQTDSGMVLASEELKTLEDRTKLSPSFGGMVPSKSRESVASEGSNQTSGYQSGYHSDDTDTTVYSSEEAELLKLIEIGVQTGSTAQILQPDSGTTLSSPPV
# pIC50: −log10 of the molar value.
# Experiments:
# EphA2 = EphA2 (Homo sapiens (Human), UniProt P29317); experiment: EphA2 kinase inhibition, luciferase-coupled chemiluminescent assay (LCCA); conditions: read-out: EphA2 IC50
# KDR = KDR (Homo sapiens (Human), UniProt P35968); experiment: KDR kinase inhibition, luciferase-coupled chemiluminescent assay (LCCA); conditions: read-out: KDR IC50
Substance,pIC50 (EphA2),pIC50 (KDR)
"N-(3,4-dichlorophenyl)-6-(methyloxy)-7-{[(5-piperidin-2-yl-1,2,4-oxadiazol-3-yl)methyl]oxy}quinazolin-4-amine hydrochloride [Example 31]",> 7.30,–
"N-(3,4-dichlorophenyl)-7-({[2-(1-ethylpiperidin-4-yl)-1,3-thiazol-4-yl]methyl}oxy)-6-(methyloxy)quinazolin-4-amine hydrochloride [Example 37]",–,> 7.30
